Laboratory results taken from patent publication US20240376427A1, “COMPOSITIONS AND SYSTEMS COMPRISING THREE-DIMENSIONAL NERVE CELL CULTURES AND METHODS OF USING THE SAME” (THE ADMINISTRATORS OF THE TULANE EDUCATIONAL FUND, priority 2021, published 2024).

Key:
DRG-SCDH cocultures [1] = type: cell-based, rat
DRG-SCDH cocultures [2] = conditions: for reversibility of analgesic effect by washout: 60-minute washout after 1 mM lidocaine / 10 uM clonidine / 500 uM morphine
[3] = tested on: embryonic rat DRG-SCDH cocultures; type: cell-based
[4] = N1-matched traces, lowest effective dose vs sham, n=4
[5] = amplitude-matched 40V analgesic trace vs pretreatment trace, lowest effective dose
[6] = qualitative dose-response, increasing doses
[7] = unbiased analysis, stimulus intensity 0 to 40V, vs sham

N#Cc1cc2c(cc1[N+](=O)[O-])=NC(=O)C(=O)N=2.O.[Na].[Na] [CNQX, 6-Cyano-7-nitroquinoxaline-2,3-dione disodium salt hydrate]
N1 (fiber volley) peak of synaptic waveform (DRG-SCDH cocultures [1]): no effect
N2 population spike amplitude (DRG-SCDH cocultures [1]): significantly reduced
P1 wave amplitude (DRG-SCDH cocultures [1]): significantly reduced

O=C(O)CN(CCN(CC(=O)O)CC(=O)O)CC(=O)O [EDTA, ethylenediaminetetraacetic acid]
N1 (fiber volley) peak of synaptic waveform (DRG-SCDH cocultures [1]): no effect
N2 population spike amplitude (DRG-SCDH cocultures [1]): completely blocked
P1 wave amplitude (DRG-SCDH cocultures [1]): completely blocked

CN1CCc2cc3c(cc2[C@H]1[C@@H]1OC(=O)c2c1ccc1c2OCO1)OCO3 [bicuculline, (+)-bicuculline]
N1 (fiber volley) peak of synaptic waveform (DRG-SCDH cocultures [1]): no effect
N2 population spike amplitude (DRG-SCDH cocultures [1]): no effect

Clc1cccc(Cl)c1N=C1NCCN1 [clonidine]
reversibility of analgesic effect by washout (DRG-SCDH cocultures [2]): Electrical activity is again detectable
N2 amplitude (DRG-SCDH cocultures [2]; [4]): trending decrease
P1 amplitude (DRG-SCDH cocultures [2]; [4]): preferentially decreased
early phase of P1 (AUC) (DRG-SCDH cocultures [2]; [4]): uniquely decreased
N1 sensitivity: percent change in stimulus intensity required to evoke N1 peak of similar magnitude (DRG-SCDH cocultures [2]; [5]): no significant effect
N2 sensitivity (change in required stimulus intensity) (DRG-SCDH cocultures [2]; [5]): primarily desensitized
P1 sensitivity (change in required stimulus intensity) (DRG-SCDH cocultures [2]; [5]): primarily desensitized
dose at which electrical activity was completely inhibited (DRG-SCDH cocultures [2]; [6]): 10 µM
dose at which increased latencies of N1 and N2 are first evident (DRG-SCDH cocultures [2]; [6]): 1 µM
dose at which reshaping of P1 is first evident (DRG-SCDH cocultures [2]; [6]): 1 µM
early phase of P1 (DRG-SCDH cocultures [2]; [7]): specifically decreased
latency of N1 and N2 (DRG-SCDH cocultures [2]; [7]): more sporadically increased

CCN(CC)CC(=O)Nc1c(C)cccc1C [lidocaine]
reversibility of analgesic effect by washout (DRG-SCDH cocultures [2]): Electrical activity is again detectable
additional effects on the shape of the synaptic waveform (DRG-SCDH cocultures [2]; [4]): no additional significant effects
N1 sensitivity: percent change in stimulus intensity required to evoke N1 peak of similar magnitude (DRG-SCDH cocultures [2]; [5]): approximately 60%
dose at which electrical activity was completely inhibited (DRG-SCDH cocultures [2]; [6]): 1000 µM
dose at which increased latencies of N1 and N2 first become apparent (DRG-SCDH cocultures [2]; [6]): 100 µM
amplitude of N1 and N2 (DRG-SCDH cocultures [2]; [7]): decreased the amplitude
latency of N1 and N2 (DRG-SCDH cocultures [2]; [7]): significantly increased
latency, amplitude, or shape of P1 (DRG-SCDH cocultures [2]; [7]): limited effects

CN1CC[C@]23c4c5ccc(O)c4O[C@H]2[C@@H](O)C=C[C@H]3[C@H]1C5.O=S(=O)(O)O [morphine, Morphine sulfate]
semi-spontaneous burst firing in SCDH spheroid [3]: increased in both amplitude and frequency

NC1=N[C@H](O)[C@H]2[C@H]3O[C@]4(O)O[C@@H]([C@@H](O)[C@@]2(N1)[C@@H]4O)[C@]3(O)CO [tetrodotoxin]
N1 (fiber volley) peak of synaptic waveform (DRG-SCDH cocultures [1]): completely blocked
